Source: paper PMC12745965 (ACS chemical neuroscience, 2024)

Amino acid sequences for entries named in this document (tags omitted).
UniProt Q64264, whole entry: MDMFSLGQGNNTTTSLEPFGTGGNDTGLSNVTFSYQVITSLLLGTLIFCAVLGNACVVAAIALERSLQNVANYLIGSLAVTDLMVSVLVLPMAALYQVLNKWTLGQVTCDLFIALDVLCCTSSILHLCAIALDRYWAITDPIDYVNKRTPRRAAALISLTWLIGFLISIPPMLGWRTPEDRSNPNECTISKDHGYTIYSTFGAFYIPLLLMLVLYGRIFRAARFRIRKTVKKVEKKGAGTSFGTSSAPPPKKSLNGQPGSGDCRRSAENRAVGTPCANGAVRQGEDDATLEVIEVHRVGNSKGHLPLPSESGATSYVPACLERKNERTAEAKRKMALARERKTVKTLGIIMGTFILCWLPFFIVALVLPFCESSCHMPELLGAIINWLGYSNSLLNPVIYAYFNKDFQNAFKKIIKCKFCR

Biological target: m5-HT1A (Mus musculus, UniProt Q64264)
Test: biochemical

Structure (SMILES): NCCc1c[nH]c2ccc(O)cc12 [5-HT, Serotonin]
- Ki: 0.3 to 7.9 nM
